Publication PMC10698194 (Nature Communications, 2023)

The chains behind the UniProt entries cited, without tags or fusion partners.
UniProt P35372, whole entry: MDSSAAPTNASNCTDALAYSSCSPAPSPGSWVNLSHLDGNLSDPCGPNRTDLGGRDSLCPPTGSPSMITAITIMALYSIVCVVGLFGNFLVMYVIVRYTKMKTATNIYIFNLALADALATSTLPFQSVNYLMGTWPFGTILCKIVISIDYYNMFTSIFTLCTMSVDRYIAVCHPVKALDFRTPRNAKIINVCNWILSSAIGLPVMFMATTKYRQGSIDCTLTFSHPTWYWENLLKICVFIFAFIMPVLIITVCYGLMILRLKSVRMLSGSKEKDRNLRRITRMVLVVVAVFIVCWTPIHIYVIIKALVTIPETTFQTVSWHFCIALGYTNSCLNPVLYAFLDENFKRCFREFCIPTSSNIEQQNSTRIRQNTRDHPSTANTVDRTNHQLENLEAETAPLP
UniProt P41143, whole entry: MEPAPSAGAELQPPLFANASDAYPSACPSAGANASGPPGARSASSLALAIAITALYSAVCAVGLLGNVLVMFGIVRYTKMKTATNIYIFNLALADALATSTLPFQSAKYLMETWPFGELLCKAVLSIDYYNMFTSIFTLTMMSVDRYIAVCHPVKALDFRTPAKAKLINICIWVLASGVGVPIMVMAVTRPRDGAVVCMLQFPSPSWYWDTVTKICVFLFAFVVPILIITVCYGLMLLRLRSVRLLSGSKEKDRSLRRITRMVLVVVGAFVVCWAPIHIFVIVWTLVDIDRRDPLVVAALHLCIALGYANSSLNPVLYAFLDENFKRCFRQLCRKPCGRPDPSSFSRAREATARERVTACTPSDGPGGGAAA

Experiments:
[1] = target: T1, human MOR (Homo sapiens, UniProt P35372); assay: [35S]GTPγS binding assay, CHO membranes; assay type: biochemical
T1 construct: expressed in transfected cells

[2] = target: T2, human DOR (Homo sapiens, UniProt P41143); assay: [35S]GTPγS binding assay, CHO membranes; assay type: biochemical
T2 construct: expressed in transfected cells

Row | Substance | agonist response at MOR, Figure S13a ([1]; Log [ligand] (M) -5) | agonist response at MOR, Figure S13a ([1]; Log [ligand] (M) -6) | agonist response at MOR, Figure S13a ([1]; Log [ligand] (M) -6.5) | agonist response at MOR, Figure S13a ([1]; Log [ligand] (M) -7) | agonist response at MOR, Figure S13a ([1]; Log [ligand] (M) -7.5) | agonist response at MOR, Figure S13a ([1]; Log [ligand] (M) -8) | agonist response at MOR, Figure S13a ([1]; Log [ligand] (M) -8.5) | agonist response at MOR, Figure S13a ([1]; Log [ligand] (M) -10) | agonist response at DOR, Figure S13b ([2]; Log [ligand] (M) -5) | agonist response at DOR, Figure S13b ([2]; Log [ligand] (M) -6) | agonist response at DOR, Figure S13b ([2]; Log [ligand] (M) -6.5) | agonist response at DOR, Figure S13b ([2]; Log [ligand] (M) -7) | agonist response at DOR, Figure S13b ([2]; Log [ligand] (M) -7.5) | agonist response at DOR, Figure S13b ([2]; Log [ligand] (M) -8) | agonist response at DOR, Figure S13b ([2]; Log [ligand] (M) -8.5) | agonist response at DOR, Figure S13b ([2]; Log [ligand] (M) -12) | Emax (%) DOR ([2]; relative to DPDPE)
1 | DAMGO [reference compound] | 110.2 and 102.8 and 103.1 | 98.6 and 91.7 and 109.2 | 90.1 and 100.8 and 91 | 76.1 and 76 and 90.9 | 70.6 and 49.3 and 71.3 | 39.6 and 48.5 and 66.2 | 33.8 | 8.2 and 4.9 and 5 |  |  |  |  |  |  |  |  | 
2 | DPDPE |  |  |  |  |  |  |  |  | 99.4 and 102.9 and 94.5 | 101.6 and 102.5 and 107.9 | 101.6 and 91.3 and 92.6 | 95 and 94.9 and 92.5 | 69.4 and 66.4 and 73.4 | 46.7 and 63 and 48.8 | 14.9 and 20.6 and 24.6 | 0 | 100%

Several values for one entry are separate records, joined by “and”; a condition that tells them apart may be missing. Equal entries are not always repeated.
